{"source": "ChEMBL document CHEMBL2440112", "about": "“Structure-activity relationships of the aromatic site in novel anticonvulsant pyrrolo[1,2-a]pyrazine derivatives” (Bioorg Med Chem Lett, 2013)", "species_on_record": "Mus musculus", "test": "Protective index, ratio of TD50 for albino mouse minimal clonic seizure model to ED50 for albino mouse assessed as protection against 6 Hz psychomotor seizure", "format": "functional", "data": [{"smiles": "CC[C@@H](C(N)=O)N1CCCC1=O", "note": "[LEVETIRACETAM]", "values": [{"measurement": "Ratio TD50/ED50", "value": ">25.8"}]}]}
